The text below walks through data of article PMC3765993, “The duration of sleep promoting efficacy by dual orexin receptor antagonists is dependent upon receptor occupancy threshold” (BMC Neuroscience, 2013).

Sequences of proteins named here, by UniProt entry; tags and fusion partners are left off.
UniProt O43614, whole entry: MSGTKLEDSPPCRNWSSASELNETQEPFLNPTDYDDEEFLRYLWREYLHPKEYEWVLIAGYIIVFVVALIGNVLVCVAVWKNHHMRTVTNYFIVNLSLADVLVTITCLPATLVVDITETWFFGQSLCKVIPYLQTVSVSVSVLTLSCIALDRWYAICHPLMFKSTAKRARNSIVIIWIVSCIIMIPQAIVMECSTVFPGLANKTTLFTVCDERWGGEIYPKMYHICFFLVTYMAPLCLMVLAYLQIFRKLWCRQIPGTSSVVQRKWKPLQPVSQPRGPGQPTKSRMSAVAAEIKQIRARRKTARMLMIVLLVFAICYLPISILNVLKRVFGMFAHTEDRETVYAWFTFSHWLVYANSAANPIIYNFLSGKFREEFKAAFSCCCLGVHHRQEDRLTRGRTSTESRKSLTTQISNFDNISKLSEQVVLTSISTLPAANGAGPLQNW

For data set [1] the following is noted: rhesus monkeys, 30 mg/kg p.o.
The next data set deals with rats. Description: Rat telemetry polysomnography (time in active wake and sleep stages). It is filed as in vivo. As to conditions: 30 mg/kg p.o., dosed mid-active phase. How it is done: The mean time spent in sleep stages was determined in radio-telemetry-implanted mice, rats, dogs, and rhesus monkeys as first described by Renger and colleagues and subsequently by Winrow and colleagues with minor modifications. For baseline studies, recordings were taken continuously from unperturbed mice, rats, dogs, and monkeys for 6, 6, 10, or 5 days, respectively, and the mean time spent in all sleep stages in 30-min intervals were averaged and plotted onto a single 24-h period (Figure 1). Almorexant is a DORA [43] that was previously in clinical development for the treatment of insomnia. The clinical development program for almorexant was terminated in early 2011. […] In all cases, mean time in active wake, quiet wake, SWS, and REM sleep was determined for each 30-min interval for 3 days of each condition and averaged onto a single 24-h period. […] Statistical differences in mean time spent in active wake, quiet wake, SWS, and REM sleep between vehicle- and compound-treated groups at 30-min time points were determined by a linear mixed-effects model applied t-test.

In data set [2] the test system is rhesus monkeys. As to conditions: 30 mg/kg, active-phase dosing, quantified over 2 h; cited from earlier work.
The subject of data set [3] is rhesus monkeys. Description: Monkey Delayed Match to Sample (DMS) task. The note with it: 30 mg/kg p.o., versus vehicle.
Data set [4] concerns rhesus monkeys. Kind of data set: Monkey Serial Choice Reaction Time (SCRT) task. As to conditions: 30 mg/kg p.o., versus vehicle.
The target in the next data set is Orexin 2 receptor (Homo sapiens, UniProt O43614). Kind of data set: Orexin 2 receptor binding kinetics.
Data set [5] deals with rhesus monkeys. As to conditions: sleep-promoting doses; cited from earlier work.

Regarding `C[C@@H]1CC[C@@H](COc2ccc(F)cn2)CN1C(=O)c1cc(F)ccc1-c1ncccn1`, the Cmax in data set [1] (read-out: Cmax (plasma)) was 134 nM. Further, in data set [1], the “Plasma level 17 h after treatment (three hours after DMS task)” value was 61 nM and the “Time of plasma Cmax” value was determined as 2 h. Further, in the data set with rats, the “Duration of active wake attenuation following treatment” value was “up to 8 h”; the “Duration of increase in delta and REM sleep following treatment” value is on record as “up to 6 h”. In the data set with rhesus monkeys [2], the “Attenuation of active wake relative to vehicle” value was 40.1 min. Moreover, the “Next-day recognition memory (DMS), 14 h after dosing” value with rhesus monkeys [3] is on record as “no attenuation of in performance was observed”. The “Next-day attention (SCRT, correct responses to shortest cues), 16 h after dosing” value in the data set with rhesus monkeys [4] is “not observed”. On Orexin 2 receptor, the “KOFF (dissociation constant)” value was 0.000313 s⁻¹, the “KON (association constant)” value came to 9.19e+06 mol⁻¹ min⁻¹ and the “T1/2 OFF (half-life off-rates)” value is recorded as 37.8 min. Further, the “T1/2 ON (binding half-life)” value at Orexin 2 receptor (almorexant applied 3-fold above its Kd (value an underestimate)) was 24.7 min. The same molecule yielded a dissociation constant (Kd) at Orexin 2 receptor (binding constant) of 0.834 nM. In the data set with rhesus monkeys [5], the “Cognitive assessment in DMS and SCRT tasks within 2 h following treatment” value is on record as “no impairment”.

Broadly, the Cmax is the peak of the concentration-time curve. For orientation: Kd means the equilibrium constant for the complex coming apart.
